From article PMC8654833 (Scientific Reports, 2021) come the findings set out here.

Amino acid sequences for entries named in this document (tags omitted).
UniProt P28222, whole entry, species assumed: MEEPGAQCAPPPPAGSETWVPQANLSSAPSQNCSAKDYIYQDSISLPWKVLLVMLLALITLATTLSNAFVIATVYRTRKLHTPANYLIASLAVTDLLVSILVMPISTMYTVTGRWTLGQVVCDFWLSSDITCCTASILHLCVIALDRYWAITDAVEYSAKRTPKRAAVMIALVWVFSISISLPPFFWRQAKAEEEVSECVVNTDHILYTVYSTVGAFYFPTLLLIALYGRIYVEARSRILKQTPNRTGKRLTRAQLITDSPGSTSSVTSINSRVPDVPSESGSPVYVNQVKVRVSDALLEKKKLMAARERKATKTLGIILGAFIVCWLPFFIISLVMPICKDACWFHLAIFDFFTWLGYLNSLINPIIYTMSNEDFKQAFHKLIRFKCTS

This test addresses T1, 5-HT1B (Homo sapiens, UniProt P28222).
T1 construct: Euroscreen FAST (contract assay)
The test can be described thus: Radioligand binding competition dose-response (Euroscreen), 5-HT1B. The following applies: dose-response study, maximal concentration 10 µM, [3H]5-CT.

Take `NCCc1c[nH]c2ccc(O)cc12` [5-HT]: the “%Binding inhibition at 10 µM” value is recorded as 103.54%.
